# Values quoted from earlier work, collected in patent US6552168B1, “Gamma-ketoacid tetrapeptides as inhibitors of caspase-3” (Merck Frosst Canada & Co., priority 1998, dated 2003).
# Legend:
# caspase-3 = molecular target: T1, caspase-3 (Homo sapiens, UniProt P42574)
# T1 sequence (P42574 29-175 limits assumed): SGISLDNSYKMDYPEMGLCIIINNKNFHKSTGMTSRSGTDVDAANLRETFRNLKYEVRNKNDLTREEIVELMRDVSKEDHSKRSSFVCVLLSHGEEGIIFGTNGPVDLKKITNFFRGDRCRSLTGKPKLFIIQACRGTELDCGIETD
# T1 sequence (P42574 176-277 limits assumed): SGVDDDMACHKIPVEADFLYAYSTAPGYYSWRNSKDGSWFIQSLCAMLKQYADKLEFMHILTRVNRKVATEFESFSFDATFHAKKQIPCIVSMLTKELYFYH
# caspase-1 = molecular target: T2, caspase-1 (Homo sapiens, UniProt P29466)
# T2 sequence (P29466 120-297 limits assumed): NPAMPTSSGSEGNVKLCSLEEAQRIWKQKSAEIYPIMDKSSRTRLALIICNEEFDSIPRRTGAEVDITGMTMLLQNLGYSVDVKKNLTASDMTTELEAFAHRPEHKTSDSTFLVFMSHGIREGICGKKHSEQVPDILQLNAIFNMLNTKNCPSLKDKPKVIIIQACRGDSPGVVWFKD
# T2 sequence (P29466 317-404 limits assumed): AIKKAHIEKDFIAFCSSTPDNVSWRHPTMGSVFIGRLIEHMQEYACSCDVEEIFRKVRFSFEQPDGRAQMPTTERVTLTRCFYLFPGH
substance,measurement,setting,value
Ac-DEVD-CHO,Ki,caspase-3,< 1 nM
same,kon caspase-3,caspase-3; slow-binding time-dependent inhibition,130000 M⁻¹ s⁻¹
same,inhibition of caspase-1 (in words),caspase-1,weaker but reasonable inhibitor of caspase-1
